# Earlier results in article PMC8032764 (Scientific Reports, 2021).
# Chains of the proteins cited; added tags and fusions are not shown. Residues count along the entry.
# UniProt P18507, 40-475: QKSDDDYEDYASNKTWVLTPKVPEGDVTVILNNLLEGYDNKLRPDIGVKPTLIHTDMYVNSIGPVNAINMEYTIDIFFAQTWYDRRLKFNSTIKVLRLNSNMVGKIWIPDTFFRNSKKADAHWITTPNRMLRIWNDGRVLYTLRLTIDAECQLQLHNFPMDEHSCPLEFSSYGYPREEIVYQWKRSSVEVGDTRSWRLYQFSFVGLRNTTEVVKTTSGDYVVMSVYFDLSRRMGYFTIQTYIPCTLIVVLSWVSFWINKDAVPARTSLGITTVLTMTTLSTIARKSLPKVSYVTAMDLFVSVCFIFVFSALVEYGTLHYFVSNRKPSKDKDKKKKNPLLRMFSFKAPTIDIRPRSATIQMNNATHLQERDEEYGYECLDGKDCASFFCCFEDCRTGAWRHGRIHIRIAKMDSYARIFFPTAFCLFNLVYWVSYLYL
# UniProt P48169, 36-554: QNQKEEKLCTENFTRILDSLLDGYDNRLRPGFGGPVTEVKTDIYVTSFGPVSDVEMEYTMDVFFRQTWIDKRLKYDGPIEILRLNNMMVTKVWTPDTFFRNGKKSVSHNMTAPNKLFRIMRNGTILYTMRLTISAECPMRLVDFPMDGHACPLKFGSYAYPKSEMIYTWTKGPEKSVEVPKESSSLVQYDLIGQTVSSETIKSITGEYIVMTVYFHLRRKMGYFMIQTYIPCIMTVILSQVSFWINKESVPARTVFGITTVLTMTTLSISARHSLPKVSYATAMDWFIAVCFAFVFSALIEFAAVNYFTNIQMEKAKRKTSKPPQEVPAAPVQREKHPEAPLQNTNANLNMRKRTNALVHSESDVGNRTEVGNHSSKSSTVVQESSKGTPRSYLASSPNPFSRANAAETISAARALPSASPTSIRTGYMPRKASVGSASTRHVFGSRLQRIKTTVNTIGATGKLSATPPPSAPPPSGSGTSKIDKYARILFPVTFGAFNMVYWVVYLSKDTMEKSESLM
# Target: T1, human α4β3γ2 (Homo sapiens, UniProt P18507+P48169)
# T1 construct: expressed in transfected cells; host or cells: HEK293-EBNA, transient
# Settings: previously determined; read-out: Kd of the radiolabel; cited from earlier work
smiles,measurement,value
"[3H]C([3H])([3H])N1Cc2c(C(=O)OCC)ncn2-c2ccc(N=[N+]=[N-])cc2C1=O [Ro 15-4513, ethyl 8-azido-6-oxo-5-(tritritiomethyl)-4H-imidazo[1,5-a][1,4]benzodiazepine-3-carboxylate]",Kd,1.01 nM
